The numbers were not newly measured in patent US9329190B2 (The General Hospital Corporation, priority 2011, dated 2016), which cites them from elsewhere.

The conditions of the data set: in circulation.

For the substance vitamin D, the “fraction of circulating hormone bound to albumin” value is recorded as 10-15% and the “fraction of circulating hormone bound to vitamin D binding protein” value is on record as 85-90%.
